Test system: Pyricularia oryzae
Assay type: in vivo
Settings: blast of rice, 500 ppm in sprayed dilution

SMILES: CC(C)OP(=O)(OC(C)C)SCc1ccccc1 [Kitazin-P, O,Odiisopropyl-S-benzylphosphorothiolate]
- Control Value: 80%

— patent US4181714A (priority 1977, dated 1980)
